Molecular target: T1, 64 kDa MMP-2 (Homo sapiens, UniProt P08253)
T1 sequence (P08253 110-660): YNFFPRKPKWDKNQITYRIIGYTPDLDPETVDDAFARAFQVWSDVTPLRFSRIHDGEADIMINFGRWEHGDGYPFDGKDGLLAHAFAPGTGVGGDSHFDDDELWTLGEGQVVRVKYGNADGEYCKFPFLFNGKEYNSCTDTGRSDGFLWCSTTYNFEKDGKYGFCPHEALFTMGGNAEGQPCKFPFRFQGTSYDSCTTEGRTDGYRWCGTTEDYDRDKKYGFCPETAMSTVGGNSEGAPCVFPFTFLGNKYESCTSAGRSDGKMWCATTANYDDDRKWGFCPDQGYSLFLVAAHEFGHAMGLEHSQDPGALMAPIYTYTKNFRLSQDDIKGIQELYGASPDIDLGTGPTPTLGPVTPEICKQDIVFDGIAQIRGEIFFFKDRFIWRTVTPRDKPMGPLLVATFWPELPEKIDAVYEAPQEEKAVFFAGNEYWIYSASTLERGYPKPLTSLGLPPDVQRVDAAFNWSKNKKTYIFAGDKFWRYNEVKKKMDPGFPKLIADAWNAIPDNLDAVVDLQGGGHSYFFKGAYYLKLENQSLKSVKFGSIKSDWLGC
Experiment: OmniMMP fluorogenic substrate kinetic assay of MMP-2 activity
Type: biochemical

## c1cnc2c(c1)ccc1cccnc12 [o-Phenanthroline, o-phenanthroline]
10 µM vs 1 nM ZnSO4
  decrease in potency at 10 µM ZnSO4 compared to potency at 1 nM ZnSO4: 2.5 fold
IC50 ± SD
  IC50: 293 ± 14 µM
